The results in this text go back to US12109284B2, “Compositions comprising fluoride and calcium and method for preparing them” (DENTHERAPY LTD, priority 2016, dated 2024).

Assay [1] is described as follows: Four-day cycling treatment microindentation model (Example 6). Also noted: species or system human. How it is done:
A four-day cycling treatment microindentation model to further assess the remineralisation potential for a formulation produced according to the following procedure (referred to as MOF).
Human enamel lesions were treated five times a day for four days with either a MOF formulation with a new batch of OPN-10 (ToothBoost New (2016) OPN), a MOF formulation with an older batch of OPN-10 (ToothBoost Old OPN), a 500 ppm fluoride solution (produced from monofluorophosphate) or deionised water.
The formulations were applied to the enamel lesions using a spray pump with the intention to align the study with prospective in vivo product use. A single actuation of the spray pump delivers approximately 0.15 g of product. The treatment procedure is as follows: • The enamel specimens were placed into artificial saliva at 37° C. for 1 hour before the start of the study. • The enamel specimens were removed from the artificial saliva and gently blotted with tissue paper to remove excess moisture. • The four groups were then selected and placed into a dedicated container, one for each group. • Each enamel specimen was then sprayed with approximately 0.15 g of either MOF new OPN-10, MOF old OPN-10, 500 ppm fluoride solution or deionised water. • The enamel was then returned to the artificial saliva and incubated at 37° C. for 1 hour. • The treatment process was repeated a total of five time in a day. • At the end of the day the enamel was rested in artificial saliva at room temperature. • The treatment process was repeated a total of four days. • After days one, two and four the microhardness of the enamel was measured by microindentation.

The nature of assay [2]: Vickers microindentation of treated erosive lesions, seven days (Example 7). Also on record: species or system bovine. The text has this: A collaborative study was setup to measure the remineralisation of erosive lesions in bovine enamel after treatment five times a day for seven days. The intention of the study was to 1.
10 mm diameter enamel cores were trepanned from the facial side of bovine incisors and mounted in 25 mm diameter resin discs. The underside of the disc was flattened using p60 grit paper and the enamel side ground with p600 paper to expose the enamel and the surface polished using 1200 and then 2500 grit paper and finally 1 um diamond polish to reveal a highly-polished enamel surface. […]
The microhardness measurements of the enamel was made using a Vickers diamond-tip indenter. Each hardness value was determined from the average of ten individual measurements made centrally on each specimen using 0.2N force over an indent time of 20 seconds. The indent size was measured using ×50 magnification which was then converted to microhardness values.
(§1) An initial microindentation measurement of the sound (non-treated) enamel was first made to ensure the enamel is sufficiently mineralised for the purpose of this study, microhardness acceptance criteria is >350 VHN. […] The enamel specimens were then posted to Calcivis for luminescence measurements and on their return the following treatments were made. […]
The change in microhardness was calculated as a percent of the baseline value. […]

Assay [3] in a line: Calcivis calcium luminescence imaging of treated erosive lesions, seven days (Example 7). Also noted: species or system bovine.
Excerpt: The Calcivis Imaging System is a method to measure free calcium ions from within the fluid filled pores of dental enamel. In cases where caries lesions are present, or where acid erosion has taken place, free calcium ion concentration is increased within the pores. This increase in concentration provides a marker for the Calcivis Imaging System to detect active de-mineralisation associated with caries activity and enamel erosion.
Assessment was made by imaging the samples as a monochrome image under visible lighting, followed by a luminescent image obtained by applying 50 μL of freshly reconstituted CALCIVIS photoprotein to the enamel surface in the dark. Any luminescent signal detected by the sensor is therefore a result of the reaction between the photoprotein and free calcium ions on the enamel surface. […]
To allow quantitative analysis of the samples the mean pixel intensity of a 100px radius circle in the centre of the image was measured.
as §1

Turning to monofluorophosphate, the “Change in microhardness as a percentage increase from the acid eroded enamel lesions” value was determined as 6.66% in assay [1] (Cycle 1), 12.33% in assay [1] (Cycle 2) and 16.85% in assay [1] (Cycle 4). The “Change in enamel hardness from eroded enamel” value in assay [2] (after treatment for seven days) is 25.39%. In addition, the “Remineralisation compared to deionised water (negative control)” value is reported as “significant remineralisation” in assay [2] (microindentation, seven days) and “significant remineralisation” in assay [3] (luminescence, seven days). In addition, the “Change in enamel luminescence from eroded enamel” value in assay [3] (after treatment for seven days) turned out to be 92.44%.
